The experiment has as its target Voltage-gated inwardly rectifying potassium channel KCNH2 (Homo sapiens, UniProt Q12809).

Chains of the proteins cited; added tags and fusions are not shown. Lines headed by an entry give the natural chain unless they say otherwise; changes in a name come on top.
UniProt Q12809: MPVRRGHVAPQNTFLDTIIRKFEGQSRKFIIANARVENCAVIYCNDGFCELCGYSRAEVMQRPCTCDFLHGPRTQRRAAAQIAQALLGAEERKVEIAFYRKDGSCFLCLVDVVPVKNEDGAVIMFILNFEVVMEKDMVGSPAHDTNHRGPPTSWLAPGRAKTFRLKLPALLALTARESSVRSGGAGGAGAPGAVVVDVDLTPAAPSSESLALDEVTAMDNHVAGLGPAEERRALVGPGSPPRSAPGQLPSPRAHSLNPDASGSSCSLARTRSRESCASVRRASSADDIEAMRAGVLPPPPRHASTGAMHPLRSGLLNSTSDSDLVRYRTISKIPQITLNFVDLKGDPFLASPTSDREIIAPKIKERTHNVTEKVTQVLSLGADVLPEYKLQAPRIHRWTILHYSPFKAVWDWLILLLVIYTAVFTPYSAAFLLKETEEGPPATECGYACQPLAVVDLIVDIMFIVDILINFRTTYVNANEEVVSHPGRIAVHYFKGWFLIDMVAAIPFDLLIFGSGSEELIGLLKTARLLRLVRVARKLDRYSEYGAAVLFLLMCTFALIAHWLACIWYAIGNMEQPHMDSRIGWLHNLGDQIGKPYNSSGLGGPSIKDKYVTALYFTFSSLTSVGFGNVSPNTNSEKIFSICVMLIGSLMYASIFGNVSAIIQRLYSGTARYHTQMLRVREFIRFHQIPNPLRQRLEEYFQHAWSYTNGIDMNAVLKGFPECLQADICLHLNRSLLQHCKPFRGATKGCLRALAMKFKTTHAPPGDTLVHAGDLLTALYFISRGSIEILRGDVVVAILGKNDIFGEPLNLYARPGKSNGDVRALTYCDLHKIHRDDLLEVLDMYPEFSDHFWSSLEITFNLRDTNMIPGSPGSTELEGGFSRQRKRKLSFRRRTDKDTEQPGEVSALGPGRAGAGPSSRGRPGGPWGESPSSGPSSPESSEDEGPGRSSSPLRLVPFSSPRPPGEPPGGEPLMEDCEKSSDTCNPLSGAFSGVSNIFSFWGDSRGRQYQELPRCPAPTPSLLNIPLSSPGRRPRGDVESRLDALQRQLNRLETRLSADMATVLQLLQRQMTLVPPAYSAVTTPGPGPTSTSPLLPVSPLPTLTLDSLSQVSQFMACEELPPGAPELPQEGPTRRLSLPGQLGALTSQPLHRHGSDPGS

Consider 1 compound from ChEMBL document CHEMBL1137856, “The pharmacophore hypotheses of I(Kr) potassium channel blockers: novel class III antiarrhythmic agents” (Bioorg Med Chem Lett, 2004).

The structures appear in SMILES notation.

Take `O=C1NC(=O)C(c2ccccc2)(c2ccccc2)N1` [PHENYTOIN]: the half-inhibitory concentration (IC50) was 240 µM.
